Experimental data published in US20140100156A1 (SANOFI, priority 2012, published 2014).

Protein sequences, listed by entry. Tags and fused reporters are not part of them. Residues count along the entry.
UniProt P43220, 24-463: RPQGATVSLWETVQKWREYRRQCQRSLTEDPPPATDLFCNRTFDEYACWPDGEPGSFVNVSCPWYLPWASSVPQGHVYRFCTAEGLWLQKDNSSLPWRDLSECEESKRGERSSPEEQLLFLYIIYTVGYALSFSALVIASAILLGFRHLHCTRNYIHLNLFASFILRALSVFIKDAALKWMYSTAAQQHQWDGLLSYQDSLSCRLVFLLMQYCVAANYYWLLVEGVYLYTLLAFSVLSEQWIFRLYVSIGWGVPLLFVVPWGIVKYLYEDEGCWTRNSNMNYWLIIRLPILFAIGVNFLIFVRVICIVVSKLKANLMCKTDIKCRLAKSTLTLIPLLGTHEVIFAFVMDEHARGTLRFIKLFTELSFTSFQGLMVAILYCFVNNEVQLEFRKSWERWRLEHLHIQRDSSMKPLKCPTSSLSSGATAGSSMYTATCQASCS
UniProt P47871, 26-477: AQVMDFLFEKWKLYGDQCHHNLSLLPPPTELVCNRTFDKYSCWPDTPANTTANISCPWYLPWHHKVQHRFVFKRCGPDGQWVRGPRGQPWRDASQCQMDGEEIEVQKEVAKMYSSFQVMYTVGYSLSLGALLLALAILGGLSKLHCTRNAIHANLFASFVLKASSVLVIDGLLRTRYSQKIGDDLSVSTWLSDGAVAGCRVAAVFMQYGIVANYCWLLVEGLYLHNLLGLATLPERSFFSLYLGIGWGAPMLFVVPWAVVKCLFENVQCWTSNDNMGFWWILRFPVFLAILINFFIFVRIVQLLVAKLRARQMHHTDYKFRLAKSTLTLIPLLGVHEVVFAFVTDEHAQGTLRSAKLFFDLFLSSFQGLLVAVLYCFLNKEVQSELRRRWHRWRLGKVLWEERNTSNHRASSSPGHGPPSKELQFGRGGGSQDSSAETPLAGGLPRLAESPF

Key:
human GLP-1 receptor = molecular target: T1, human GLP-1 receptor (Homo sapiens, UniProt P43220); assay: cAMP response (HTRF) of HEK-293 cells stably expressing human GLP-1 receptor; format: cell-based; details: Table 5; cAMP, HEK-293; read-out: EC50 hGLP-1R
T1 construct: expressed in transfected cells; host or cells: HEK-293

human glucagon receptor = molecular target: T2, human glucagon receptor (Homo sapiens, UniProt P47871); assay: cAMP response (HTRF) of HEK-293 cells stably expressing human glucagon receptor; format: cell-based; details: Table 5; cAMP, HEK-293; read-out: EC50 hGlucagon-R
T2 construct: expressed in transfected cells; host or cells: HEK-293

SMILES	EC50 (human GLP-1 receptor)	EC50 (human glucagon receptor)
CCCCCCCCCCCCCCCC(=O)NCCCC[C@H](NC(=O)[C@H](CCC(N)=O)NC(=O)[C@H](CCCCN)NC(=O)[C@H](CO)NC(=O)[C@H](CC(C)C)NC(=O)[C@H](CC(=O)O)NC(=O)[C@H](CO)NC(=O)[C@@H](NC(=O)[C@H](Cc1ccccc1)NC(=O)[C@@H](NC(=O)CNC(=O)[C@H](CCC(N)=O)NC(=O)[C@@H](CO)NC(=O)[C@@H](N)Cc1c[nH]cn1)[C@@H](C)O)[C@@H](C)O)C(=O)N[C@@H](CCC(=O)O)C(=O)N[C@@H](CO)C(=O)N[C@@H](CCCNC(=N)N)C(=O)N[C@@H](CCCNC(=N)N)C(=O)N[C@@H](C)C(=O)N[C@@H](CCC(N)=O)C(=O)N[C@@H](CC(=O)O)C(=O)N[C@@H](Cc1ccccc1)C(=O)N[C@H](C(=O)N[C@@H](CCC(=O)O)C(=O)N[C@@H](Cc1c[nH]c2ccccc12)C(=O)N[C@@H](CC(C)C)C(=O)N[C@@H](CCCCN)C(=O)N[C@@H](CC(N)=O)C(=O)NCC(=O)NCC(=O)N1CCC[C@H]1C(=O)N[C@@H](CO)C(=O)N[C@@H](CO)C(=O)NCC(=O)N[C@@H](C)C(=O)N1CCC[C@H]1C(=O)N1CCC[C@H]1C(=O)N1CCC[C@H]1C(=O)N[C@@H](CO)C(=O)N[C@@H](CCCCN)C(N)=O)[C@@H](C)CC [compound 112]	0.0336 nM	0.0211 nM
CCCCCCCCCCCCCCCC(=O)N[C@@H](CCC(=O)NCCCC[C@H](NC(=O)[C@H](CCC(N)=O)NC(=O)[C@H](CCCCN)NC(=O)[C@H](CO)NC(=O)[C@H](CC(C)C)NC(=O)[C@H](CC(=O)O)NC(=O)[C@H](CO)NC(=O)[C@@H](NC(=O)[C@H](Cc1ccccc1)NC(=O)[C@@H](NC(=O)CNC(=O)[C@H](CCC(N)=O)NC(=O)[C@@H](CO)NC(=O)[C@@H](N)Cc1c[nH]cn1)[C@@H](C)O)[C@@H](C)O)C(=O)N[C@@H](CCC(=O)O)C(=O)N[C@@H](CO)C(=O)N[C@@H](CCCNC(=N)N)C(=O)N[C@@H](CCCNC(=N)N)C(=O)N[C@@H](C)C(=O)N[C@@H](CCC(N)=O)C(=O)N[C@@H](CC(=O)O)C(=O)N[C@@H](Cc1ccccc1)C(=O)N[C@H](C(=O)N[C@@H](CCC(=O)O)C(=O)N[C@@H](Cc1c[nH]c2ccccc12)C(=O)N[C@@H](CC(C)C)C(=O)N[C@@H](CCCCN)C(=O)N[C@@H](CC(N)=O)C(=O)NCC(=O)NCC(=O)N1CCC[C@H]1C(=O)N[C@@H](CO)C(=O)N[C@@H](CO)C(=O)NCC(=O)N[C@@H](C)C(=O)N1CCC[C@H]1C(=O)N1CCC[C@H]1C(=O)N1CCC[C@H]1C(=O)N[C@@H](CCCCN)C(N)=O)[C@@H](C)CC)C(=O)O [compound 113]	0.0114 nM	0.0054 nM
CCCCCCCCCCCCCCCC(=O)NCCCC[C@H](NC(=O)[C@H](CCC(N)=O)NC(=O)[C@H](CCCCN)NC(=O)[C@H](CO)NC(=O)[C@H](CC(C)C)NC(=O)[C@H](CC(=O)O)NC(=O)[C@H](CO)NC(=O)[C@@H](NC(=O)[C@H](Cc1ccccc1)NC(=O)[C@@H](NC(=O)CNC(=O)[C@H](CCC(N)=O)NC(=O)[C@@H](CO)NC(=O)[C@@H](N)Cc1c[nH]cn1)[C@@H](C)O)[C@@H](C)O)C(=O)N[C@@H](CCC(=O)O)C(=O)N[C@@H](CO)C(=O)N[C@@H](CCCNC(=N)N)C(=O)N[C@@H](CCCNC(=N)N)C(=O)N[C@@H](C)C(=O)N[C@@H](CCC(N)=O)C(=O)N[C@@H](CC(=O)O)C(=O)N[C@@H](Cc1ccccc1)C(=O)N[C@H](C(=O)N[C@@H](CCC(=O)O)C(=O)N[C@@H](Cc1c[nH]c2ccccc12)C(=O)N[C@@H](CC(C)C)C(=O)N[C@@H](CCCCN)C(=O)N[C@@H](CC(N)=O)C(=O)NCC(=O)NCC(=O)N1CCC[C@H]1C(=O)N[C@@H](CO)C(=O)N[C@@H](CO)C(=O)NCC(=O)N[C@@H](C)C(=O)N1CCC[C@H]1C(=O)N1CCC[C@H]1C(=O)N1CCC[C@H]1C(=O)N[C@@H](CCCCN)C(N)=O)[C@@H](C)CC [compound 114]	0.0623 nM	0.0311 nM
